Bioassay records as filed in PubChem.
HDAC3 inhib = human HDAC3 inhibition; O15379; recombinant HDAC3, fluorogenic peptide/trypsin coupled, fluorescence; inhibition, % at 8.3 µM; 0.15% of 320,000 active; AID 2718; in the data active means inhibition above about 26%, passing the limit was not always enough
UUG fidelity = modulators of yeast start codon fidelity, primary screen, whole organism, S. cerevisiae, single point, plate reader | AID 602363, 2012 | actives 0.13% (n = 350,000) | activity score, % at 18.7 µM | S. cerevisiae UUG-firefly luciferase reporter, luminescence/redox ratio;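 active means replicate mean at a twofold rise or more, about +100% in these data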;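 further: firefly luciferase made from a UUG start codon reports start codon fidelity; reporter light over untreated wells divided by growth signal over untreated wells; some hits fall short of that in this replicate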
MC4R ag barr = activates human MC4R beta-arrestin recruitment; AID 540308; activation, % at 8.9 µM; 0.98% of 360,000 active; U2OS MC4R beta-arrestin complementation, luminescence; percent of melanotan II response, DMSO zero; P32245;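 active means activation above a per-plate cutoff, the mean activation of sample wells on that plate plus 3 SD, cut at about 8% in these data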
MC4R antag cAMP = human MC4R antagonism in cAMP assay. inhibition, % at 6.5 µM. 0.48% of 360,000 active. MC4R-expressing cells, MTII-stimulated cAMP, LANCE TR-FRET;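 active means inhibition above its plate's cutoff, the mean of tested wells on that plate plus 3 SD, cut at about 29% in these data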;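 further: 0% = Melanotan II alone and 100% = Melanotan II plus saturating MCL0020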
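Assay system: U2OS cells stably expressing human melanocortin 4 receptor (MC4R) / Dosing: 6.5 µM / Timing: compound 30 min, challenge 1 h, detection 1 h / Measured by: Eu-cAMP/anti-cAMP TR-FRET, emission 671 nm / Replicates: singlicate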
ALR H2O2 inh = human ALR oxidase inhibition via reduced H2O2; P55789; purified ALR, DTT oxidation, H2O2 HRP-luminol luminescence; inhibition, % (concentration not given with the values); 290,000 compounds, 3.8% hits;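 active = mean and each replicate at 75% or more; inconclusive = only one of the two met; inactive = neither met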;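 also: stock transfer was 7.5 nL into about 7.5 µL; 0% = neutral wells and 100% = wells with inactivated enzyme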
NALP1 inh = NALP1 inhibition. inhibition, % at 10 µM. S. cerevisiae NALP1/ASC/caspase-1 growth, X-gal OD620, 72 h. 0.61% of 280,000 active. AID 2071; in the data active means inhibition mostly above about 24%, no sharp cut-off; inactive means mostly below about 32%
MC4R barr ag = human MC4R beta-arrestin agonism confirmation. 31% of 2,400 active. shares compounds with MC4R ag barr. AID 602192. activation, % at 8.9 µM. U2OS MC4R beta-arrestin recruitment, luminescence; scaled DMSO 0%, Melanotan II 100%;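 active means mean activation across replicates above the hit cutoff set in the earlier primary screen, cut at about 8% in these data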
MOR DOR agonist = activates mu-delta opioid heterodimer, MC4R agonist counter-screen; shares compounds with MC4R ag barr; U2OS PathHunter beta-arrestin, beta-gal luminescence; percent of deltorphin B response, DMSO zero; activation, % at 9.2 µM; 5.8% of 2,400 active; AID 602194;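 active means mean activation across replicates exceeds the hit threshold derived in the earlier primary screen, cut at about 18% in these data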;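 further: 100% = deltorphin B at 0.9 µM final and 0% = DMSO alone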
The depositor's hits bear a star; nt = no result. Only some compounds are listed: those with a hit (about 4.2% of all), similar ones and a draw of the others.

SMILES	HDAC3 inhib	UUG fidelity	MC4R ag barr	MC4R antag cAMP	ALR H2O2 inh	NALP1 inh	MC4R barr ag	MOR DOR agonist
C[C@@H]1CCCCO[C@@H](CN(C)S(C)(=O)=O)[C@@H](C)CN([C@H](C)CO)C(=O)c2cc(NC(=O)C3CCCCC3)ccc2O1	nt	12	nt	nt	nt	nt	nt	nt
CCOC(=O)c1c(C)[nH]c(C)c1C(=O)CSc1nnc(-c2ccc(OC(F)F)cc2)o1	5	nt	29*	2	1	12	6	9
C/C(N)=C(/C#N)C(=O)CSc1nnc(-c2ccc(OC(F)F)cc2)o1	5	-6	1	11	-20	-2	nt	nt
CCc1c(C2(O)CCCCC2)[nH]c2ccc(C#N)cc12	4	-18	11*	8	nt	nt	3	8
COc1ccc(C(=O)Nc2ccccc2C(=O)Nc2cccnc2)cc1	-3	nt	0	-3	nt	4	nt	nt
COc1ccc(NC(=O)c2ccccc2NC(=O)c2ccccc2)cc1	-4	8	9.6*	3	0	13	2	5
COc1ccc(NC(=O)c2ccccc2NC(=O)CSc2ccc(Cl)cc2)cc1	8	-12	0	-5	-4	16	nt	nt
O=C(CSc1ccccc1)Nc1ccc(C(=O)Nc2ccc(O)cc2)cc1	nt	nt	28*	5	nt	2	15*	5
COc1ccc(NC(=O)c2ccccc2NC(=O)CSc2ccccc2)cc1	3	nt	13*	1	-3	10	-1	5
CNC(=O)C[C@@H]1CC[C@H]2[C@H](COc3ccc(NC(=O)Nc4ccc(F)cc4)cc3C(=O)N2C)O1	nt	2	nt	nt	nt	nt	nt	nt

Arranged by value in ALR H2O2 inh (largest number first): five of the compounds above.
molecule,ALR H2O2 inh
CCOC(=O)c1c(C)[nH]c(C)c1C(=O)CSc1nnc(-c2ccc(OC(F)F)cc2)o1,1
COc1ccc(NC(=O)c2ccccc2NC(=O)c2ccccc2)cc1,0
COc1ccc(NC(=O)c2ccccc2NC(=O)CSc2ccccc2)cc1,-3
COc1ccc(NC(=O)c2ccccc2NC(=O)CSc2ccc(Cl)cc2)cc1,-4
C/C(N)=C(/C#N)C(=O)CSc1nnc(-c2ccc(OC(F)F)cc2)o1,-20

The listing continues:
SMILES	HDAC3 inhib	UUG fidelity	MC4R ag barr	MC4R antag cAMP	ALR H2O2 inh	NALP1 inh	MC4R barr ag	MOR DOR agonist
CC(C)NC(=O)N(C)C[C@H]1OCCCC[C@@H](C)Oc2ccc(NC(=O)c3ccncc3)cc2C(=O)N([C@H](C)CO)C[C@H]1C	nt	4	nt	nt	nt	nt	nt	nt
C[C@H]1CN([C@@H](C)CO)C(=O)c2cc(NC(=O)C3CC3)ccc2O[C@@H]1CN(C)S(=O)(=O)c1ccc(Cl)cc1	nt	8	nt	nt	nt	nt	nt	nt
O=C(Nc1ccc(F)cc1)N1C[C@@H]2[C@H](c3ccccc31)[C@H](CO)N2C(=O)Cc1ccccn1	nt	15	nt	nt	nt	nt	nt	nt
CN(C)C(=O)C[C@@H]1C[C@H]2c3cc(NC(=O)C4CCC4)ccc3O[C@H]2[C@@H](CO)O1	nt	-12	nt	nt	nt	nt	nt	nt
C[C@H](CO)N1C[C@H](C)[C@H](CN(C)S(=O)(=O)c2ccc(C#N)cc2)OCc2ccccc2-c2ccccc2C1=O	nt	3	nt	nt	nt	nt	nt	nt
CO[C@H]1CN(C)C(=O)c2cc(NS(=O)(=O)c3ccccc3F)ccc2OC[C@@H](C)NC[C@H]1C	nt	-12	nt	nt	nt	nt	nt	nt
O=C(CSc1ccccc1)Nc1nnc(COc2ccc(Cl)cc2)s1	-7	nt	18*	-2	15	10	3	7
CCOC(=O)C(=O)Nc1nnc(COc2ccccc2)s1	-1	-17	1	14	3	-4	nt	nt
O=C(COc1ccccc1)Nc1nnc(COc2ccccc2)s1	6	-15	9.9*	2	-4	4	-5	3
O=c1c2cnn(-c3ccc(F)cc3)c2ncn1Cc1ccccc1	-1	-11	14*	3	-3	3	0	4
O=c1c2cnn(-c3ccc(F)cc3)c2ncn1Cc1cccnc1	-8	-22	0	9	-4	-27	nt	nt
C[C@@H]1CN([C@@H](C)CO)C(=O)c2cc(C#CC3CC3)cnc2O[C@H]1CN(C)Cc1ccccn1	nt	-18	nt	nt	nt	nt	nt	nt
O=C(CN(CCc1ccccc1)S(=O)(=O)c1ccc(Cl)cc1)N/N=C/c1ccc2c(c1)OCO2	-8	-9	25*	7	-5	12	7	5
C[C@H](CO)N1C[C@H](C)[C@H](CN(C)S(C)(=O)=O)OCCCC[C@H](C)Oc2ccc(NC(=O)c3ccccc3)cc2C1=O	nt	-8	nt	nt	nt	nt	nt	nt
CCc1nonc1NC(=O)c1oc2cc(C)c(C)cc2c1C	-5	-6	12*	1	2	32	2	6
Nc1c(C(=O)NCc2ccc3c(c2)OCO3)nnn1Cc1ccc(Br)cc1	-3	-22	18*	-5	nt	nt	7	10
Cc1ccc(NC(=O)/C(C#N)=C/c2ccc(Sc3nc(C)cc(C)n3)o2)cc1	-1	-20	23*	18	nt	23	6	22*
Cc1cc(C)nc(Sc2ccc(/C=C(\C#N)C(N)=O)o2)n1	2	-3	-2	-5	-1	17	nt	nt
Cc1cc(F)cc(-c2cc(C(=O)NCc3ccccc3)[nH]n2)c1	nt	-41	1	-3	nt	nt	nt	nt
Cc1cc(F)cc(-c2cc(C(=O)NCc3cccc(Cl)c3)[nH]n2)c1	nt	-17	13*	19	nt	nt	2	7
O=C(C[C@H]1C[C@H]2c3cc(NC(=O)C4CCC4)ccc3O[C@H]2[C@@H](CO)O1)NCc1ccc(-c2ccccc2)cc1	nt	-13	nt	nt	nt	nt	nt	nt
COc1ccc(NC(=O)c2cc(Br)ccc2Cl)c([N+](=O)[O-])c1	-4	nt	11*	-1	-16	13	4	4
COc1ccc(NC(=O)COC(=O)c2cc(C)oc2C)c([N+](=O)[O-])c1	nt	-8	23*	8	nt	nt	3	11
COc1ccc(NC(=O)c2ccc(C)cc2Cl)c([N+](=O)[O-])c1	1	5	2	0	-2	20	nt	nt
O=C(Nc1ccc2c(c1)[C@@H]1C[C@H](CC(=O)N3CCc4ccccc4C3)O[C@@H](CO)[C@@H]1O2)C1CCC1	nt	4	nt	nt	nt	nt	nt	nt
CCC(=O)N[C@@H]1CC[C@@H](CC(=O)NCC2CCCCC2)O[C@@H]1CO	nt	-4	nt	nt	nt	nt	nt	nt
O=C(Cn1cc(S(=O)(=O)Cc2ccccc2)c2ccccc21)Nc1ccccc1	nt	nt	9.7*	-6	nt	28	-4	4
COc1ccc(NC(=O)Cn2cc(S(=O)(=O)Cc3ccccc3)c3ccccc32)c(OC)c1	2	nt	0	-4	-14	19	nt	nt
C[C@@H]1CN([C@H](C)CO)C(=O)c2cc(C#C[C@@H](C)O)cnc2O[C@@H]1CN(C)C(=O)Nc1ccc(F)cc1	nt	6	nt	nt	nt	nt	nt	nt
Cc1nn(-c2ccccn2)c(C)c1Oc1ccccc1O	-1	-17	-1	-3	43	-18	nt	nt
Cc1nn(-c2nc3ccccc3s2)c(C)c1Oc1ccccc1O	10	5	22*	2	nt	-65	0	5
O=C(Nc1cccc(Cl)c1)Nc1sccc1-c1nc2ccccc2s1	0	-4	3	11	17	nt	nt	nt
O=C(Nc1ccccc1)Nc1sccc1-c1nc2ccccc2s1	-6	-11	17*	26	1	nt	5	5
c1ccc(Cn2nnc3c(Nc4ccc5c(c4)OCO5)nc(C4CC4)nc32)cc1	-20	nt	18*	9	nt	16	3	5

A few values from the entries so far:
Cc1nn(-c2nc3ccccc3s2)c(C)c1Oc1ccccc1O in HDAC3 inhib is listed with 10
O=C(Nc1cccc(Cl)c1)Nc1sccc1-c1nc2ccccc2s1 in MC4R antag cAMP is listed with 11
